Measured values published in PubChem BioAssay (Tox21).
Only a part is listed here, and it is no random draw. Results filed as inconclusive are left out. A call without a number means that no potency is given here. Active and inactive are the calls of the source. Calls come from the whole dose curve; as a rule, active = well fitted cell-killing curve with a large enough effect in the repeat runs; inconclusive = weak or mixed curves, or effect the other way; inactive = flat fitted curve, though single readings scatter.

Assay: qHTS assay to identify small molecule antagonists of the androgen receptor (AR) signaling pathway using the MDA cell line in the presence of 0.5 nM R1881 - cell viability counter screen (AID 1259242); note: nearly all actives have a fitted effect of over 45% in size
Settings: MDA-kb2 viability, CellTiter-Fluor protease fluorescence, 16 h; series mostly up to 92.4 µM
Excerpt: U.S. Tox21 Program National Center for Advancing Translational Sciences [NCATS] NIH Chemical Genomics Center [NCGC] U.S. Environmental Protection Agency [EPA] National Institutes of Environmental Health Sciences [NIEHS] National Toxicology Program [NTP] U.S. Food and Drug Administration [FDA] Tox21 Assay Overview: Androgen receptor (AR) is an important member of the nuclear receptor family. Its signaling plays a critical role in AR-dependent prostate cancer and other androgen related diseases. Considerable attention has been given in the past decades to develop methods to study and screen for the environmental chemicals that have the potential to interfere with metabolic homeostasis, reproduction, developmental and behavioral functions. Therefore AR binding assay for screening androgen antagonists can be used to identify potential endocrine disruptors. MDA-kb2 cells (from ATCC, deposited by Wilson et al.) were used to screen for AR inhibitors against Tox21 compound libraries. These cells are human breast carcinoma cells that were stably transfected with a luciferase reporter gene under control of the MMTV promoter that contains response elements for both androgen receptor (AR) and glucocorticoid receptor (GR). The current screening for identification of AR inhibitors against Tox21 libraries used lower concentration of (0.5 nM) R1881 as a stimulator. The cytotoxicity of the Tox21 compound libraries against MDA-kb2 cell line was tested by measuring live-cell protease activity using CellTiter-Fluor assay in the same wells.
Tox21 Assay Protocol Summary: MDA-kb2 cells (cells cultured without CO2) were dispensed at 3,000 cells/well in 4 uL of culture medium into white wall/solid-bottom 1536-well plates (Corning Life Sciences, Corning, NY) using a Multidrop Combi (ThermoFisher Scientific, Waltham, MA) dispenser. After the assay plates were incubated at a 37C and 0% CO2 for 5 hr, 23 nL of compounds dissolved in DMSO, positive controls or DMSO only was transferred to the assay plate by a Pintool station (Kalypsys, San Diego, CA). The transfer of compounds was followed by the addition of 1 uL of 0.5 nM (final concentration) agonist (R1881)/culture medium using a Flying Reagent Dispenser (FRD, Aurora Discovery, San Diego, CA). The plates were incubated at 37C and 0% CO2 for 16 hr. For cytotoxicity assay, 1 uL of CellTiter-Fluor reagent (Promega Corporation, Madison, WI) was added to each well using the FRD and after 30 min incubation at 37C and 0% CO2, The fluorescence intensity was measured using ViewLux plate reader (PerkinElmer, Shelton, CT).
Potency is the fitted concentration of half-maximal effect.

Row | SMILES | Potency | viability change, negative = cytotoxic
1 | O=[N+]([O-])c1ccc(S(=O)(=O)O)c([N+](=O)[O-])c1 | inactive | 
2 | O=[As]c1ccccc1 (stereo not given) | active: 3.06 µM | 
3 | ClP(Cl)c1ccccc1 | inactive | 
4 | NC(=O)Nc1ccc([As](=O)(O)O)cc1 | inactive | 
5 | CCCCOP(OCCCC)OCCCC | inactive | 
6 | CC(C)CCCCCCCOP(OCCCCCCCC(C)C)Oc1ccccc1 | inactive | 
7 | O=[p+]1oc2ccccc2c2ccccc21 (stereo not given) | inactive | 
8 | O=C(Cl)OCCOC(=O)Cl | inactive | 
9 | O=C(Cl)Oc1ccccc1 | inactive | 
10 | CN(N=O)C(=N)N[N+](=O)[O-] | inactive | 
11 | CN(C(=O)Cc1ccc(Cl)c(Cl)c1)[C@H]1CC[C@@]2(CCCO2)C[C@@H]1N1CCCC1 | inactive | 
12 | CCCCO[P+](=O)OCCCC | inactive | 
13 | COC(=O)Cl | inactive | 
14 | CN(C(=O)Cc1ccccc1)[C@H]1CC[C@@]2(CCCO2)C[C@@H]1N1CCCC1 | inactive | 
15 | CC(C)OP(=S)(OC(C)C)SCCNS(=O)(=O)c1ccccc1 | inactive | 
16 | O=P(Cl)(Cl)c1ccccc1 | inactive | 
17 | CCC(C)(OOC(C)(C)C)OOC(C)(C)C |  | inactive: -1.71% [at 19 µM]
18 | COP(=S)(Cl)OC | inactive | 
19 | O=P(Cl)(Oc1ccccc1)Oc1ccccc1 | inactive | 
20 | CCOC(=O)Cl | inactive | 
21 | CCOP(=S)(CC)Sc1ccccc1 (stereo not given) | inactive | 
22 | CCNC(C)Cc1ccc2c(c1)OCO2 (stereo not given) | inactive | 
23 | CN(C(=O)Cc1cccc2occc12)[C@H]1CC[C@@]2(CCCO2)C[C@@H]1N1CCCC1 | inactive | 
24 | CCCCC(CC)CO[P+](=O)OCC(CC)CCCC (stereo not given) | inactive | 
25 | O=[P+](Oc1ccccc1)Oc1ccccc1 | inactive | 
